Some compounds may have been tested in ways that are not shown here.
Test system: Hormoconis resinae ATCC#20495
Experiment: Microbial testing in biodiesel fuel, plate count
Assay type: cell-based
Settings: no biocide

## OCCN(CCO)CCO
Additive 500 ppm, Week 4
  Mold (H. resinae) count: 1.60E+03 Mold/ml
Additive 1500 ppm, Week 1
  Mold (H. resinae) count: <1.0E2 Mold/ml

Source: patent US8546386B2, “Corrosion and microbial control in hydrocarbonaceous compositions” (Dow Global Technologies LLC, priority 2008, dated 2013)
